Yeast mating assay B: variants of the scFv Ab-14

The target is the same throughout: PDVDLGDISGINAS, from the HR2 region of SARS-CoV-2 spike.

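Phage display of a naive human antibody library on the peptide gave the parent. The variants were designed computationally from a first round of random CDR variants and then made and measured. Several design methods are mixed in this list. The scFvs were displayed on barcoded MATa yeast, the peptide on MATalpha yeast. Mating (16 h, 30 °C) was followed by selection of diploids and sequencing of their barcodes. Each replicate has its own calibration line, from reference interactions of the BCL2 family. Each pool was mated in six replicate cultures.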

Parent: Ab-14, a human scFv built as VH, three GGGGS repeats, VL. Only the CDRs of the heavy chain vary.
VH: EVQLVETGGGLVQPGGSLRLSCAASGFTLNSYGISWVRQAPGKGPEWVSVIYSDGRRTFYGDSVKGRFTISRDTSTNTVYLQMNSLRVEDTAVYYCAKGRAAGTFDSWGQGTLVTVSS
VL: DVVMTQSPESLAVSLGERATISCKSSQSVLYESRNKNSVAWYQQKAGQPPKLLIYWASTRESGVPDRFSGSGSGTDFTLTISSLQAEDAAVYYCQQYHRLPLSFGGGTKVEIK

The parent's heavy chain CDRs are GFTLNSYGIS, VIYSDGRRTFYGDSVK, GRAAGTFDS; each variant's own CDRs replace them letter for letter.
Kd is apparent (estimated from mating counts) and averaged on the log scale over replicates with a signal. Smaller is tighter.
An entry "not detected" has no value in the source: the pair was not observed among the diploids in any replicate. This suggests poor binding but is not conclusive.
Of ten entries with the parent sequence, four were seen in most replicates (averages 2.2 nM to 240 nM), three in one and three in none, so single entries are noisy.
A sequence measured in both rounds can read differently, since the two assays cover different ranges.
Some sequences occur more than once in the pool; their replicates are pooled.
Background: pairings of all heavy chain designs with three empty control strains gave a value in 1% of cases (median 120 nM, 5th percentile 7.0 nM). Values in that range, when seen in few replicates, are hard to tell from nonspecific mating. Also given: how often the same scFv was detected with the empty control strains.
In the paper, a design with two or fewer of six values counts as a poor binder.

| CDR-H1 | CDR-H2 | CDR-H3 | Kd | seen in | empty controls |
|---|---|---|---|---|---|
| GFDLNSYGIS | VIYSDGRRTFYGDPVK | GRNAGTFDS | 1.8 nM | 6/6 | 0/18 |
| GFDLNEYGIS | VIYADGMRTFYADSVK | GEIAGTFDF | 390 pM | 6/6 | 0/18 |
| GFYLNSYGIS | VIYSDGRRTFYSDSVK | GEAAGTFDS | 20 nM | 6/6 | 0/18 |
| GFHLNSYGIS | VIYSDGRRTAYGDSVK | GQAAGTFDS | 18 nM | 4/6 | 0/18 |
| GFTLNSYGIS | VIYSDGKRTFYSDSVK | GKAAGTFDW | not detected | 0/6 | 0/18 |
| GFELNSYGIS | VIYSDGKRTFYADNVK | GRTAGTFDS | 740 pM | 6/6 | 0/18 |
| GKSLDEYGIS | VIYADGMRAEYQNQVK | GTTGGDFFV | not detected | 0/6 | 0/18 |
| GFTLNSYGIS | VIYSDGRRTFYSDSVK | GRVAGTFDT | 3.3 nM | 6/6 | 1/18 |
| GFDLNSYGIS | VIYSDGRRTFYKDSVK | GNEAGTFDS | 730 pM | 6/6 | 0/18 |
| GFDLNSYGIS | VIYPDGRRTFYGHSVK | GRAAGTNKS | not detected | 0/6 | 0/18 |
| GFDLEEYGIS | VIYADGTRTAYADSVK | GNVAGTFDS | 820 pM | 6/6 | 0/18 |
| GFDLNEYGIS | VIYADGKRTFYIDSVK | GENAGTFDM | 650 pM | 6/6 | 0/18 |
| GFELNSYGIS | VIYSDGRRTFYSDDVK | GRTAGTFDS | 590 pM | 6/6 | 1/18 |
| GFTLNEMGIS | VIYSDGRRTFYGDSVK | GRAAVTFDM | not detected | 0/6 | 0/18 |
| GFDLNEYGIS | VIYADGQRRAYSQSVK | GHGEDLYLD | 86 nM | 4/6 | 1/18 |
| GFDLNEYGIS | VIYADGVRTAYSDSVK | GNTAGTFDM | 300 pM | 6/6 | 2/18 |
| GFNINEYGIS | VIYADGIRTHYVDDVK | GKHTGGKMD | not detected | 0/6 | 0/18 |
| GFNIDEYGVS | VIYADGERTYYADKVK | GHNGVMALD | not detected | 0/6 | 0/18 |
| GFNLNSYGIS | VIYSDGRRTFYGDSVK | GMEAGTFDS | 1.7 nM | 6/6 | 0/18 |
| GFDLNSYGIS | VIYSDGRKTFYGDSVK | GRTAGTFDS | 2.1 nM | 6/6 | 0/18 |
| GFDLNEYGIS | VIYADGRRTAYSDSVK | GEIGGTFDS | 790 pM | 6/6 | 0/18 |
| GFDLNEYGIS | VIYADGRRTAYSDSVK | GEVAGTFDT | 430 pM | 6/6 | 2/18 |
| GFDLDEYGIS | VIYADGKRTAYADDVK | GNVAGTFDM | 280 pM | 6/6 | 0/18 |
| GFTLNSYGIS | VIYSDGRRTFYGDSVK | GRAAMTFDS | not detected | 0/6 | 0/18 |
| GFDLNSYGIS | VIYSDGRRTFYGDSVK | GETAGTFDS | 1.2 nM | 6/6 | 3/18 |
| GFGIEEYGIS | VIYADGQRNAYADEVK | GENAGTFDI | 1.0 nM | 6/6 | 0/18 |
| GFTLNSYGIS | VIYSDGRRTFYIDSVK | GNAAGTFDS | 3.6 nM | 5/6 | 0/18 |

Continued, with the values leading:

| Kd | seen in | empty controls | CDR-H1 | CDR-H2 | CDR-H3 |
|---|---|---|---|---|---|
| 400 nM | 1/6 | 0/18 | GFPLNSYGIS | VIYSDGRRTFYGDSVK | GRAMGTFDS |
| 280 pM | 6/6 | 0/18 | GFDLDEYGIS | VIYADGRRTFYADSVK | GETAGTFTS |
| 20 nM | 1/6 | 0/18 | GFTLDSYGIS | VKYSDGRRTFRGDSVK | GRAAGTALS |
| 760 pM | 6/6 | 0/18 | GFYLNEYGIS | VIYSDGRRTFYGDSVK | GRTAGTFDT |
| 700 pM | 12/12 | 1/36 | GFTLNDYGIS | VIYADGRRTFYGDSVK | GRAAGTFDS |
| 48 nM | 2/6 | 1/18 | GFSLNSYGIS | VIYSDGWRTFYVDSVK | GRNAGTFDS |
| 1.4 nM | 6/6 | 0/18 | GFTLNSYGIS | VIYSDGRRTAYGDSVK | GIAAGHFDL |
| not detected | 0/6 | 2/18 | GTTLNSYGIS | VIYSDGRRVFYGDSVK | GRGYGTFDS |
| 39 nM | 2/6 | 0/18 | GFDLNEYGIS | VIYADGVRTAYSDNVK | GNQAGTFDV |
| not detected | 0/6 | 0/18 | GFTLNSYGIS | VIYSDFERTFYGDSVK | GRAAGTFDS |
| 3.6 nM | 6/6 | 0/18 | GFSLNEYGIS | VIYSDGRRTFYCDSVK | GRAAGTFDS |
| 720 pM | 6/6 | 0/18 | GFELNSYGIS | VIYADGRRTFYGDSVK | GRAAGTFDT |
| 860 pM | 6/6 | 0/18 | GFDLDEYGIS | VIYADGMRTAYADNVK | GNVAGTFDT |
| 440 pM | 6/6 | 0/18 | GFELNEYGIS | VIYSDGRRTFYGDSVK | GRTAGTFDS |
| not detected | 0/6 | 0/18 | GFTLNDYGIS | VIYSDGRRWFYGTSVK | GRAALTFIS |
| not detected | 0/6 | 0/18 | GFQLDEFGIS | VIYADGKRSSYVDDVK | GETTGIFKV |
| not detected | 0/6 | 0/18 | GLTLNEYGIS | VITSDDRRTFYGDSVK | GRAAGTFPL |
| 240 pM | 6/6 | 0/18 | GFDLEEYGIS | VIYADGQRTAYADSVK | GNVAGTFDQ |
| not detected | 0/6 | 0/18 | GRNLDEYGIS | VIYADGTRTSYRDNVK | GVTGGHLVT |
| 190 pM | 6/6 | 0/18 | GFDLDEYGIS | VIYADGMRTAYADDVK | GNNAGTFDM |
| 210 pM | 6/6 | 1/18 | GFDLNEYGIS | VIYADGVRTFYADSVK | GQLAGTFDS |
| 100 nM | 1/6 | 0/18 | GFNLNEYGIS | VIYSDGRRTFYGDSVK | GKAAGTFDR |
| not detected | 0/6 | 0/18 | GFTLNEYGIS | VIYSDGRRTFYGDSVK | GRAAWTFCV |
| 40 nM | 2/6 | 0/18 | GFQLNSYGIS | VIYSDGRRTFYQDQVK | GQTAGTFDS |
| 1.4 nM | 5/6 | 0/18 | GFDLNEYGIS | VIYSDGRRTFYGDAVK | GRAAGTFDI |
| not detected | 0/6 | 0/18 | GFTLNSYGIQ | VIYSDGRRVFYKDSVK | GRASGTFDD |
| 430 pM | 6/6 | 1/18 | GFDLDEYGIS | VIYADGQRTAYADDVK | GQNAGTFDV |
| 5.2 nM | 6/6 | 0/18 | GFNLNSYGIS | VIYSDGRRTFYVDSVK | GREAGTFDS |

The first 5 variants above that were never detected:

| CDR-H1 | CDR-H2 | CDR-H3 | Kd | seen in | empty controls |
|---|---|---|---|---|---|
| GFTLNSYGIS | VIYSDGKRTFYSDSVK | GKAAGTFDW | not detected | 0/6 | 0/18 |
| GKSLDEYGIS | VIYADGMRAEYQNQVK | GTTGGDFFV | not detected | 0/6 | 0/18 |
| GFDLNSYGIS | VIYPDGRRTFYGHSVK | GRAAGTNKS | not detected | 0/6 | 0/18 |
| GFTLNEMGIS | VIYSDGRRTFYGDSVK | GRAAVTFDM | not detected | 0/6 | 0/18 |
| GFNINEYGIS | VIYADGIRTHYVDDVK | GKHTGGKMD | not detected | 0/6 | 0/18 |

Source: Li et al. 2023 (doi:10.1038/s41467-023-39022-2), MIT Lincoln Laboratory and A-Alpha Bio; data file from the FLAb repository.